Screening data (PubChem)
miR-21 reporter = raises the signal of a miR-21 reporter | AID 2288 | 340,000 tested, under 10 active | Potency, µM (series often up to 38.3 µM) | HeLa miR-21 FLuc reporter, luciferase, 48 h; active = well fitted rising curve with a large enough effect; inconclusive = small, poorly fitted or top-dose-only effect; inactive = no such curve, though single readings can be large or run the other way;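 further: miR-21 action dims this reporter so a rising signal means less miR-21 action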
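HeLa cells endogenously expressing miR-21, stably carrying CMV-driven firefly luciferase with a downstream miR-21 binding site, 2000 cells/well. Titrations up to approximately 40 uM, 48 hours; luciferase luminescence read.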
TrxR1 inh = inhibitors of rat thioredoxin reductase 1. O89049. recombinant rTrxR1, NADPH fluorescence consumption, selenite substrate. Potency, µM (series often up to 114 µM), hits mostly inhibitors. 390,000 tested, 1% active; note: nearly all actives have a fitted effect of over 65% in size
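Rat TrxR1 (90 nM in the dispensed reagent) was pre-reduced with 400 uM NADPH for 5 min at room temperature, then incubated with compound for 15 min. After 400 uM selenite was added, NADPH fluorescence (Ex 340/Em 450 nm) was followed for 8 min.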
PINK1 modulator = modulators of PINK1 expression | PINK1 immunofluorescence, high-content cytometry, 24 h | Potency, µM (doses to about 76.6 µM), most hits filed as activators | 410,000 tested, 0.2% active; active = well fitted activation curve with a large enough effect; inconclusive = small, poorly fitted or top-dose-only effect; cell line not stated here; note: nearly all actives have a fitted effect of over 65% in size
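Stable cell line, 250 cells/well, 12 h attachment; compounds pinned at 5 concentrations, 24 h; CCCP control. Fixed with nuclear dye, primary antibodies 12 h at 10 degrees C, secondary plus cell stain; laser-scanning cytometer read.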
TrxR1 substrate = rat thioredoxin reductase 1 substrate activity. O89049. purified TrxR1 substrate turnover, NADPH consumption readout. Potency, µM (doses to about 114 µM). 390,000 tested, 0.01% active; note: nearly all actives have a fitted effect of over 50% in size
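Rat TrxR1, dispensed at 90 nM, was prereduced with 400 uM NADPH (final) for 5 min at ~22 deg C, then incubated with compound 15 min before 400 uM selenite. A first-read NADPH fluorescence drop versus no-compound background flagged substrates.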
GALK inhibitor = galactokinase (human) inhibition; P51570; Purified GALK, Kinase-Glo residual ATP luminescence; Potency, µM (series often up to 57.5 µM), most hits filed as inhibitors; 270,000 tested, 0.007% active
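Kinase-Glo Plus luminescence measured ATP left after a 1 h room-temperature reaction. The reaction used 5 nM GALK, 100 uM galactose and 35 uM ATP at pH 8.0 (20 mM HEPES, 5 mM MgCl2, 60 mM NaCl, 1 mM DTT, 0.01% BSA).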
Numbers stand for hits; [ ] = dose if it differs, or a comment. Shown are actives, neighbours in structure and some others; about 1.1% of the full set was active somewhere. Unless noted, calls come from the whole dose curve; as a rule, active = well fitted curve in the direction sought with a large enough effect; inconclusive = small, poorly fitted or top-dose-only effect, or another doubt; inactive = no such curve, though single readings can be large; an effect the other way counts as inactive or inconclusive.

What do the screens show for `COC(=O)c1cc(Cl)c(NC(=O)/C=C/c2ccc(Cl)cc2)cc1OC`?
miR-21 reporter: inactive; TrxR1 inh: inactive; PINK1 modulator: inconclusive; TrxR1 substrate: inactive; GALK inhibitor: inactive

How did Cc1csc(SCC(=O)N2CCOc3ccc(C(O)C4CCCCC4)cc3C2)n1 (stereo not drawn) do in these assays?
PINK1 modulator: inactive

How did CCSC1(SCC)N=C(N)C2(C#N)C(c3ccc(OC)c(OC)c3OC)C12C#N (stereo not drawn) do in these assays?
miR-21 reporter: inconclusive; TrxR1 inh: 44.7µM; PINK1 modulator: inactive; TrxR1 substrate: inactive; GALK inhibitor: inactive

Results for COc1cccc(/C=C2/CCC(CN(C)C)C2=O)c1 (stereo not drawn) ?
TrxR1 inh: 1.12µM; PINK1 modulator: inactive; TrxR1 substrate: inactive[11.4 µM]

How did COc1ccc(/C=C2/CCCC(CN(C)C)C2=O)cc1 (stereo not drawn) do in these assays?
TrxR1 inh: inconclusive; PINK1 modulator: inactive; TrxR1 substrate: inactive

What do the screens show for `CN(C)CC1CCC/C(=C/c2ccc(Cl)cc2)C1=O` (stereo not drawn)?
TrxR1 inh: inconclusive; PINK1 modulator: inactive; TrxR1 substrate: inactive

How did CCCC/C=C1/CCC(CN(C)C)C1=O (stereo not drawn) do in these assays?
TrxR1 inh: 0.631µM; PINK1 modulator: inactive; TrxR1 substrate: inactive[11.4 µM]

Results for Cc1cccnc1-c1cccc2c1OC(CNC(=O)Cc1c(C)noc1C)C2 (stereo not drawn) ?
PINK1 modulator: inactive

Results for O=C(NC(N1CCCC1)C(Cl)(Cl)Cl)c1ccccc1 (stereo not drawn) ?
miR-21 reporter: inactive; TrxR1 inh: 31.6µM; PINK1 modulator: inactive; TrxR1 substrate: inactive; GALK inhibitor: inactive

How did O=C(c1ccc([N+](=O)[O-])o1)N1CCN(c2nc3c(Cl)cccc3s2)CC1 do in these assays?
TrxR1 inh: 39.8µM; PINK1 modulator: inactive; TrxR1 substrate: inactive

Results for Cc1ncc2c(c1CNC(=O)c1ccccc1F)CCN(C(=O)c1[nH]c3ccc(Cl)cc3c1C)C2 ?
PINK1 modulator: inactive

How did Cc1ccc(C(=O)N/N=C(/CC(=O)c2cccs2)C(F)(F)F)cc1 do in these assays?
miR-21 reporter: inactive; TrxR1 inh: inconclusive; PINK1 modulator: 44.7µM; TrxR1 substrate: inactive; GALK inhibitor: inactive

How did CCOC(=O)c1cc2c(=O)n3ccccc3nc2n(CC2CCCO2)c1=NC(=O)c1ccc(OC)cc1OC (stereo not drawn) do in these assays?
miR-21 reporter: inactive; TrxR1 inh: inconclusive; PINK1 modulator: inactive; TrxR1 substrate: inactive

How did Cc1cccc(C)c1NS(=O)(=O)c1ccc(NS(=O)(=O)c2ccc3c(c2)OCCO3)cc1 do in these assays?
miR-21 reporter: inconclusive; TrxR1 inh: inactive; PINK1 modulator: inactive; TrxR1 substrate: inactive

What do the screens show for `Cc1ccc(SCc2c(-c3ccccc3)nn(C)c2Cl)cc1`?
miR-21 reporter: inactive; TrxR1 inh: inactive; PINK1 modulator: inactive; TrxR1 substrate: inactive; GALK inhibitor: inactive

What do the screens show for `Cc1ccc(Sc2c(C#N)c(-c3ccccc3)nn2C)cc1`?
miR-21 reporter: inactive; TrxR1 inh: inactive; PINK1 modulator: 10µM; TrxR1 substrate: inactive; GALK inhibitor: inactive

Results for O=C(O)c1ccc(-n2cccn2)c([N+](=O)[O-])c1 ?
miR-21 reporter: inactive; TrxR1 inh: 56.2µM; PINK1 modulator: inactive; TrxR1 substrate: inactive; GALK inhibitor: inactive

How did COc1cc2c(C(=O)NCc3ccc(C)o3)cn(CC(C)C)c(=O)c2cc1OC do in these assays?
miR-21 reporter: inactive; TrxR1 inh: 20µM; PINK1 modulator: inactive; TrxR1 substrate: inactive

What do the screens show for `Cc1ccc(CCNC(=O)c2cc3sccc3n2Cc2ccc(Cl)cc2)cc1`?
miR-21 reporter: inactive; TrxR1 inh: inactive; PINK1 modulator: inactive; TrxR1 substrate: inactive

What do the screens show for `NC(CO)C(=O)NNCc1ccc(O)c(O)c1O` (stereo not drawn)?
miR-21 reporter: inconclusive; TrxR1 inh: 5.97µM; TrxR1 substrate: inactive; GALK inhibitor: inactive

What do the screens show for `O=C(C1CC12CCN(Cc1cccc3cccnc13)CC2)N1CCN(Cc2cccs2)CC1` (stereo not drawn)?
PINK1 modulator: inactive

Results for CCOC(=O)C1=C(C)NC(=S)NC1c1ccc(-c2cccc(Cl)c2C)o1 (stereo not drawn) ?
miR-21 reporter: inactive; TrxR1 inh: 22.4µM; PINK1 modulator: inactive; TrxR1 substrate: inactive; GALK inhibitor: inactive

What do the screens show for `CCOC(=O)C1=C(C)NC(=S)NC1c1ccc(-c2ccc(Cl)cc2)o1` (stereo not drawn)?
miR-21 reporter: inactive; TrxR1 inh: inconclusive; PINK1 modulator: inactive; TrxR1 substrate: inactive; GALK inhibitor: inactive

How did CCOC(=O)C1=C(C)NC(=S)NC1c1ccco1 (stereo not drawn) do in these assays?
miR-21 reporter: inactive; TrxR1 inh: 50.1µM; PINK1 modulator: inactive; TrxR1 substrate: inactive; GALK inhibitor: inactive

How did COC(=O)c1cc(C)nc2c1C(=O)C(=O)C=C2N1CCOCC1 do in these assays?
miR-21 reporter: inconclusive; TrxR1 inh: inactive; PINK1 modulator: inactive; TrxR1 substrate: 35.5µM; GALK inhibitor: 7.08µM

Results for CC1=NN(C(C#N)c2ccccc2)C(C)(C)C1 (stereo not drawn) ?
miR-21 reporter: inactive; TrxR1 inh: inactive; PINK1 modulator: inactive; TrxR1 substrate: inactive; GALK inhibitor: inactive

How did COc1ccc(C(C#N)N2N=C(C)CC2(C)C)cc1OC (stereo not drawn) do in these assays?
miR-21 reporter: inactive; TrxR1 inh: 39.8µM; PINK1 modulator: inactive; TrxR1 substrate: inactive; GALK inhibitor: inactive

How did COc1ccc(-n2c(C)cc(/C=C3\SC(=S)NC3=O)c2C)cc1 do in these assays?
miR-21 reporter: inactive; TrxR1 inh: inactive; PINK1 modulator: 31.6µM; TrxR1 substrate: inactive; GALK inhibitor: inactive

What do the screens show for `Cc1cc(/C=C2\SC(=S)NC2=O)c(C)n1C`?
miR-21 reporter: inactive; TrxR1 inh: 25.1µM; TrxR1 substrate: inactive; GALK inhibitor: inactive

How did Cc1cc(/C=C2\SC(=S)NC2=O)c(C)n1-c1ccc(O)cc1 do in these assays?
miR-21 reporter: inactive; TrxR1 inh: inconclusive; PINK1 modulator: inactive; TrxR1 substrate: inactive; GALK inhibitor: inactive

What do the screens show for `Cc1cc(/C=C2\SC(=S)NC2=O)c(C)n1-c1ccccc1`?
miR-21 reporter: inactive; TrxR1 inh: inactive[11.4 µM]; PINK1 modulator: inactive; TrxR1 substrate: inactive[11.4 µM]; GALK inhibitor: inactive

Results for COc1ccc(NC(=O)c2cnn(-c3ccc(C)cc3)c2-n2cccc2)cc1Cl ?
miR-21 reporter: inactive; TrxR1 inh: inactive; PINK1 modulator: inactive; TrxR1 substrate: inactive

What do the screens show for `O=C(NCc1cccc(OC(F)(F)F)c1)c1cccc2c1C(=O)c1ccc(-c3ccc(F)cc3OCc3ccccc3)cc1S2(=O)=O`?
TrxR1 inh: inactive; PINK1 modulator: inactive; TrxR1 substrate: inactive

How did COc1ccc(-c2ccc3c(c2)S(=O)(=O)c2cccc(C(=O)NCc4cccc(OC(F)(F)F)c4)c2C3=O)cc1OC do in these assays?
TrxR1 inh: inactive; PINK1 modulator: 4.47µM; TrxR1 substrate: inactive
